Laboratory results reported in US20240199555A1, “APPLICATIONS OF BIASED LIGANDS OF THE SEROTONIN 5-HT7 RECEPTOR FOR THE TREATMENT OF PAIN, MULTIPLE SCLEROSIS AND THE CONTROL OF THERMOREGULATION” (Centre National de la Recherche Scientifique, priority 2021, published 2024).

Amino acid sequences for entries named in this document (tags omitted). Residues count along the entry.
UniProt P34969, 1-432: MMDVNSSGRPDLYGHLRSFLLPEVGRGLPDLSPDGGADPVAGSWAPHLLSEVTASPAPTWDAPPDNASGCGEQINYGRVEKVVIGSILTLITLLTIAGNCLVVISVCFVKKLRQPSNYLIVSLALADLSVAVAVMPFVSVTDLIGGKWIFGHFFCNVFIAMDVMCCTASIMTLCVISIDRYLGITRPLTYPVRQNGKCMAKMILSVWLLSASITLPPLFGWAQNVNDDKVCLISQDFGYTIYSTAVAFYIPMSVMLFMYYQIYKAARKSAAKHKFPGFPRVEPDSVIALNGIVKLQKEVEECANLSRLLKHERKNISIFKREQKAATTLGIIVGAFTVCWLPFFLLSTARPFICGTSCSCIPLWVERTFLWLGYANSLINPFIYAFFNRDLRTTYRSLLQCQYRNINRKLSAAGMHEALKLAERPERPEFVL
UniProt P34969, whole entry, looked up: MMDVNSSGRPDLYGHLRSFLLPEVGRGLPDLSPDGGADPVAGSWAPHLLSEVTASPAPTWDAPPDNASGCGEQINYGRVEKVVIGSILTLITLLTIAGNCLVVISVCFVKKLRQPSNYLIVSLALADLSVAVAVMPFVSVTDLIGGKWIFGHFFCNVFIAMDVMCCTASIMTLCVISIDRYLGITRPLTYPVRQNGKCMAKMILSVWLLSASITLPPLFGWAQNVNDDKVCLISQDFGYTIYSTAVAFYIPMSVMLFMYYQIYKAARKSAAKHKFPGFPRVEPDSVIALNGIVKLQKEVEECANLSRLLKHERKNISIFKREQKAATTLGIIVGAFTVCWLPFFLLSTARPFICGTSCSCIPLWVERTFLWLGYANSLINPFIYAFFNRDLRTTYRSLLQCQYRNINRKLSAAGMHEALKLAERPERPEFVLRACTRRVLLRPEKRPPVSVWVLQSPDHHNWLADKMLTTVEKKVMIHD

Tests used:
Type in all cases: cell-based
h5-HT7R [1] = target: T1, h5-HT7R (Homo sapiens (Human), UniProt P34969); assay: ERK1/2 and c-SRC phosphorylation by western blot in HEK-293 cells stably expressing h5-HT7R; conditions: 10 μM of ligand or increasing concentrations
Procedure: (A, B, C, D, E, F) Time course of activation of ERK1/2 after stimulation of HEK-293 cells stably expressing h5-HT7R with various 5-HT7R ligands used at 10 μM. The cells were stimulated for the indicated periods and assayed for detection of phospho ERK1/2 by western blot analysis. […] Representative blots of three independent experiments are illustrated. The histogram on the right of each panel represents the results of densitometric analyses of three independent experiments. Data are means±SEM. * p<0.05; ** p<0.01; *** p<0.001 versus non stimulated cells (NS).
HEK-293 cells stably expressing h5-HT7R were stimulated with increasing concentrations of 5-CT or Serodolin for 7 minutes. […] Quantification was performed by densitometric analyses from three independent experiments. Analyzed data were plotted versus log concentration for each compounds (A; B) or as bar graph (C) on the right panel. […]
Treated cells were washed twice with cold PBS and lysed on ice for 30 min in lysis buffer containing 50 mM Tris pH 7.5, 150 mM NaCl, 10 mM EDTA, 1% Triton X-100 and the protease inhibitor cocktail. […] Immunoreactive bands were detected using the Dura detection kit. Protein quantification on blots was performed using Quantity One software (Biorad). […]
ERK phosphorylation was monitored by western blotting after treatment of cells with 10 μM of ligands at different times ranging from 2 to 60 minutes.

5-HT7(b) receptors = 5-HT7(b) receptors (Homo sapiens, UniProt P34969); assay: BRET between 5-HT7-RLuc and Venus-mini G proteins (G protein recruitment)
h5-HT7R [2] = target: T1, h5-HT7R; assay: cAMP accumulation (LANCE cAMP detection kit) in HEK-293 cells stably expressing h5-HT7R; conditions: tested alone
Procedure: (B) HEK-293 cells stably expressing h5-HT7R were stimulated with 10 nM of 5-CT and increasing concentrations of products for one hour. After cell lysis, cAMP production was quantified by a LANCE cAMP detection kit (Perkin Elmer). […] Data points represent the means±SEM from three independent experiments performed in triplicate. The EC50 and IC50 for each drug was determined using GraphPad Prism software.
cAMP accumulation was measured with a LANCE™ cAMP detection kit (Perkin-Elmer Life Sciences, Boston, MA, USA). 12 h before experiment cells were starved. Forty-eight h after transfection, cells were harvested in Hank's balanced salt solution (HBSS) containing 5 mM HEPES, 1 mM isobutylmethylxanthine (IBMX) and 0.1% BSA, PH 7.4. After centrifugation (1000×g, 5 min), cells were resuspended in the same buffer (2×10^6 per ml). The ALEXA™ fluor 647 anti-cAMP antibody solution (1 μl) was added to the cell suspension (100 μl) and 5 μl aliquots of the mixture were dispensed in white 384-well microtiter plates (Optiplate, Perkin Elmer). The cells were then stimulated with different drugs. […] After 2 h incubation at room temperature in the dark, the plates were read on a VictorV™ microplate reader (Perkin-Elmer Life Sciences). Concentration/response curves were analyzed using Prism 4 software. […]

With CC1CCN(CC[C@H]2CCCN2S(=O)(=O)c2cccc(O)c2)CC1 [SB269970, reference compound] as the compound, how does the “induction of ERK phosphorylation” value (h5-HT7R [1]) read?
Its value is “none of them were able to induce ERK activation”.

And the “Gαs recruitment” value (5-HT7(b) receptors; mGs BRET)?
Its value is “behaved as inverse for Gαs recruitment”.

And the “Gαi, Ga12 or Gαq recruitment” value (5-HT7(b) receptors; mGsi, mG12, mGsq BRET)?
Its value is “neither classical (5-CT, SB 269970) nor biased 5-HT7R ligands (Serodolin) were able to induce the Gαi, Ga12 or Gαq recruitment”.

What about the “effect on cAMP response” value (h5-HT7R [2]) of the same compound?
Its value is “inverse agonist effects on cAMP response”.
